Patent US11732008B2, “Preparation of functional homocysteine residues in polypeptides and peptides” (The Regents of the University of California, priority 2016, dated 2023)

Experiments:
[1] = Cloud point temperature (Tcp) by transmittance while heating; assay type: physicochemical; conditions: for Tcp (° C.): polymer 3.0 mg/mL in H2O, heated 1° C./min, temperature of 50% transmittance at 500 nm, —a = no Tcp detected, fully soluble 20 to 80° C., NA^b = insoluble in H2O down to 5° C.
Description: (§1) FIGS. 7A and 7B show CD Spectra and heating curves of exemplary OEG-Hcy derivatives.
The incorporation of precise side-chain structural modifications, enabled systematic study of the effects of different functionalities on the properties of the materials. […] Cloud point temperatures (Tcp) were determined at 50% transmittance by monitoring solution transmittance as a function of temperature, and were used to approximate the equilibrium LCST values. Since chain length variation and polymer concentration are well known to affect Tcp values, all samples were identical in length, being prepared from the same stock of M60 (SEQ ID NO: 1).

[2] = Chain conformation / helicity by circular dichroism (CD) spectroscopy; assay type: physicochemical; conditions: for chain conformation / α-helical (%): CD in water, 0.5 mg/mL, 20° C.
Description: A) Scheme for complete conversion of helical, water-insoluble M60 (SEQ ID NO: 1) to disordered, water soluble 31a (M^EG360 (SEQ ID NO: 1)), then to helical, water soluble 31 (EG3-C^H60 (SEQ ID NO: 2)) via M alkylation followed by demethylation. B) CD spectra of M60 (SEQ ID NO: 1), 31a and 31 in either THF (M60 (SEQ ID NO: 1)) or DI water (31a & 31). For M60 (SEQ ID NO: 1), no data are presented below 204 nm due to solvent absorption that prohibits data collection. 31 found to be 85% α-helical. All CD spectra recorded at 0.5 mg/ml, 20° C. Figure discloses “C^H60” as SEQ ID NO: 2.
as §1
Heating or cooling rate: 1° C./min, transmittance recorded at 500 nm. B) CD spectra for 2e (0.5 mg/mL) in H2O for a sample incrementally heated from 20° C. to 45° C. and returned back to 20° C. (label: 20° C.*).
All data were recorded in H2O at 0.5 mg/mL, 20° C. For 5b no data were recorded below 198 nm due to sulfoxide absorption.

Substance	Tcp (° C.) [1] [°C]	chain conformation [2]	Tcp / LCST in water, present or not [1]	also measured
Poly(S-(2-hydroxy-4,7,10,13-tetraoxatetradecyl)-L-homocysteine) [Sample 2f]	76	helical	–	increase in Tcp over the other samples (3a, 3b) ([1]; hydroxyl linker group versus acetate and carbonate): ca. 36 °C; α-helical (%) [2]: 85%; water solubility (in words) (Solubility in water): water soluble
Poly(S-(2-hydroxy-4,7,10,13-tetraoxatetradecyl)-L-methionine sulfonium chloride) [Sample 31a]	–	disordered	–	water solubility (in words) (Solubility in water): water soluble
Poly(S-(2-hydroxy-4,7,10-trioxadodecyl)-L-homocysteine) [Sample 2e]	28	–	–	chain conformation above Tcp ([2]; CD in H2O, heated above Tcp (2e: 0.5 mg/mL, 20° C. to 45° C.)): remained helical
Poly(S-(2-hydroxy-4,7,10-trioxaundecyl)-L-homocysteine) [Sample 2d]	53	–	–	–
Poly(S-(3-(2-hydroxyethoxy)-2-hydroxypropyl)-L-homocysteine) [Sample 2a]	–	–	no LCST	–
Poly(S-(3-(2-methoxyethoxy)-2-hydroxypropyl)-DL-homocysteine) [rac-2b]	–	–	do not have LCSTs	–
Poly(S-(3-(2-methoxyethoxy)-2-hydroxypropyl)-L-homocysteine) [Sample 2b]	33	α-helical conformation	shows a Tcp in water	α-helical (%) [2]: 84%
Poly[(S-(2-hydroxy-4,7,10-trioxaundecyl)-L-homocysteine)0.5-stat-(S-(2-hydroxy-4,7,10-trioxadodecyl)-L-homocystein)0.5] [Sample 4b]	40	–	–	–
